The values below come from article PMC11750451, “Diarylamidine activation of a brachiopod DEG/ENaC/ASIC channel” (The Journal of Biological Chemistry, 2024).

Protein sequences, listed by entry. Tags and fused reporters are not part of them.
UniProt A0AAU8BSW0, entry or part of it: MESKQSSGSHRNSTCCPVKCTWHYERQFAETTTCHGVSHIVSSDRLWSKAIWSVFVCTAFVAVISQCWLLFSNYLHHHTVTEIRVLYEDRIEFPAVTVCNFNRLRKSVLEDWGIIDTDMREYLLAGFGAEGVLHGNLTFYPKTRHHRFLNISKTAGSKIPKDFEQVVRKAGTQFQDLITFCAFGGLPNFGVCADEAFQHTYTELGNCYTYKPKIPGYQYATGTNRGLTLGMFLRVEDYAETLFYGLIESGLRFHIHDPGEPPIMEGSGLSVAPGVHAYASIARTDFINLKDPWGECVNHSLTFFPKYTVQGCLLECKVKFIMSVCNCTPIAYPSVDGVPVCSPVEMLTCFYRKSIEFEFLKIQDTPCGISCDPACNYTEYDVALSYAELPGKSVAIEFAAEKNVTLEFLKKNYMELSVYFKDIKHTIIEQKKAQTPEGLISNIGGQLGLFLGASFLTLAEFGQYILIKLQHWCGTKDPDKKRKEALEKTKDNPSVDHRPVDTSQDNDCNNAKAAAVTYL

This experiment has as its target DiaaNaC (diarylamidine-activated Na+ channel) (Novocrania anomala, UniProt A0AAU8BSW0). In words: Two-electrode voltage clamp of Xenopus laevis oocytes expressing WT DiaaNaC. The format is cell-based. On the procedure: Before electrophysiological recordings or surface expression determination, the oocytes were cultured for 3 days at 18 °C in 50% Leibowitz medium (L1518, Merck), supplemented with 0.25 mg/ml gentamicin, 1 mM L-glutamine, and 15 mM Hepes (pH 7.6). For surface expression detection, mouse anti-Myc tag monoclonal IgG1 antibody (MA121316, Fisher Scientific) was used to detect the myc tag attached to the 3′-end of all the constructs used in this work, and the protocol previously used in our lab was followed ([47]) using a Zeiss Axio Scope A1 microscope. The intensity of the expression signal was quantified by tracing a perpendicular line across the oocyte membrane and measuring the gray values with ImageJ software ([48]).
Whole cell currents were recorded from oocytes by two-electrode voltage clamp using an OC-725D amplifier (Warner Instruments) controlled via an Axon Digitata 1550B interface and pClamp v11 (Molecular Devices), acquired at 1 kHz, and filtered at 200 Hz. Currents were analyzed in pClamp v10.7 software (Molecular Devices) and additionally filtered at 10 Hz for display in figures. Oocytes were clamped at −60 mV, unless otherwise indicated, and continuously perfused with a bath solution containing (in mM): 140 NaCl, 1.8 BaCl2, and 10 Hepes. The pH was adjusted to 7.5 with NaOH, HCl, or KOH, as appropriate. For current–voltage relationships where K^+ replaced Na^+, KCl replaced NaCl in the above bath solution. In most experiments, activating solution was applied to oocytes in between resting periods of at least 30 to 60 s. After retrieving current amplitude from pClamp, all data were analyzed in Prism v9 (GraphPad Software). Currents were normalized by dividing by the maximum current at that oocyte, giving “I/Imax” in most concentration–response graphs. For graphs in figures and for calculating half-maximal effective (or inhibitory) concentration (EC50 or IC50) values, variable slope nonlinear regression was used in Prism v9, with the equation Y = Bottom + (Top-Bottom)/ […] 10^∧((LogEC50-X)∗HillSlope)), and maximum was constrained to one and minimum to zero. […]
A general note: Two-electrode voltage clamp holds a large cell at a set potential and records current.

“Also recorded” adds a separate entry of the source.

Turning to `N=C(N)NC(=O)c1nc(Cl)c(N)nc1N` [amiloride], the IC50 is ~800 µM. For the setting “1 mM amiloride, pentamidine 300 μM, −100 mV to +10 mV”, the “percentage of amiloride block, change with membrane voltage” value is “did not change significantly”. Also, the “activation of DiaaNaC (agonist activity)” value (compound at 1 mM, −60 mV) is recorded as “activated no current; also recorded: none of these compounds activated”.

As a reminder, the IC50 is the concentration at which inhibition is half-maximal. Low values mean higher potency, high ones lower potency.
